Sequences of proteins named here, by UniProt entry; tags and fusion partners are left off. Residues count along the entry.
UniProt Q96G28, 1-133: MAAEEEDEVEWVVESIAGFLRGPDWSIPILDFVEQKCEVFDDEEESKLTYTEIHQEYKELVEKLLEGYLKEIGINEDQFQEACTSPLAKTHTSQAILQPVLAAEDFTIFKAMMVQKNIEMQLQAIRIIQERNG

According to article PMC4635315 (2015):

Molecular target: BARTL1 (CCDC104/CFAP36) 1-133 (Homo sapiens, UniProt Q96G28)
Assay: fluorescence polarization

B1: Arl3 deltaN deltaN (protein)
chain: EVRILLLGLDNAGKTTLLKQLASEDISHITPTQGFNIKSVQSQGFKLNVWDIGGQRKIRPYWRSYFENTDILIYVIDSADRKRFEETGQELTELLEEEKLSCVPVLIFANKQDLLTAAPASEIAEGLNLHTIRDRVWQIQSCSALTGEGVQDGMNWVCKNVNAKKK
modifications: GppNHp-bound Arl3, Cy5-labeled BARTL1
Kd: > 50 µM
